Compound activity as filed in PubChem BioAssay.
Only some compounds are listed: those with a hit (about 13% of all), similar ones and a draw of the others.
Sfp PPTase inh = Sfp phosphopantetheinyl transferase inhibition; 310,000 tested, 3.5% active; Potency, µM, inactives show max response, negative = inhibition, hits mostly inhibitors; AID 1490; Q9F4F7; Biochemical Sfp PPTase activity, qHTS; active = well fitted inhibition curve with a large enough effect; inconclusive = small, poorly fitted or top-dose-only effect, or another doubt; inactive = no such curve, though single readings can be large or run the other way;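 also: the enzyme is Sfp with the accession as filed and its product quenches rhodamine fluorescence; potency is read from the fitted curve at half-maximal effect; 0% = enzyme reaction without inhibitor and -100% = no enzyme wells; top concentration of the series not given in the record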
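Fluorescence-quenching assay: 15 nM Sfp-PPTase preincubated 15 min at room temperature with compound, then 5 uM rhodamine-CoA and 12.5 uM BHQ-2-labelled YbbR peptide added. Fluorescence (ex 525/em 598 nm) read at start and after 30 min; difference gives rate.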
JMJD2E inh = JMJD2E (human) inhibition; Potency, µM (doses to about 57.1 µM), for inactives: at the highest dose activity change, negative = inhibition, usual class: inhibitors; 1.6% of 230,000 active; B2RXH2; JMJD2E catalytic domain, FDH-coupled NADH fluorescence (FDH is formaldehyde dehydrogenase);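 also: potency is read from the fitted curve at half-maximal effect; 0% = wells with enzyme and -100% = buffer wells without enzyme; nearly all actives have a fitted effect of over 50% in size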
miR-21 FLuc = raises the signal of a miR-21 reporter; HeLa miR-21 FLuc reporter, luciferase, 48 h; Potency, µM (top dose mostly 38.3 µM), for inactives: at the highest dose reporter change, positive = more light; AID 2288; 340,000 tested, under 10 active; active = well fitted rising curve with a large enough effect; inconclusive = small, poorly fitted or top-dose-only effect; inactive = no such curve, though single readings can be large or run the other way;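 note: % of control where 0% means no effect; miR-21 action dims this reporter so a rising signal means less miR-21 action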
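Luminescence from a firefly luciferase reporter carrying a miR-21 binding site downstream, stably expressed under a CMV promoter in HeLa cells that make miR-21 endogenously, reports miRNA modulation after 48 h compound exposure up to approximately 40uM final.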
G9a inh = blocks human histone lysine methyltransferase G9a; Q96KQ7; G9a H3K9 monomethylation, AlphaScreen, 2 h; Potency, µM (doses to about 102 µM), for inactives: at the highest dose activity, negative = inhibition, hits mostly inhibitors; 8.8% of 350,000 active; AID 504332; also: potency is read from the fitted curve at half-maximal effect; % is scaled to controls: 0 for no effect and ±100 for the full control effect; nearly all actives have a fitted effect of over 75% in size
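Enzyme 20 nM + cpd, 15 min RT; add b-H3K9 pep 500 nM / SAM 20 uM; 2 h RT; anti-H3K9me1 Ab 0.5 ug/mL + SA donor / anti-rabbit acceptor beads 20 ug/mL each, 10 min; AlphaScreen read.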
ALDH1A1 inh = inhibitors of human aldehyde dehydrogenase 1A1. P00352. Purified ALDH1A1, NADH fluorescence, propionaldehyde substrate. Potency, µM (series often up to 75.3 µM), inactives show at the highest dose activity, negative = inhibition, hits mostly inhibitors. 7.3% of 220,000 active. AID 1030; active = well fitted inhibition curve with a large enough effect, not every such curve was filed as active; inconclusive = small, poorly fitted or top-dose-only effect, or another doubt; inactive = no such curve, though single readings can be large or run the other way;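 also: potency is read from the fitted curve at half-maximal effect; plate controls were no enzyme wells and a reference inhibitor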
Lamin A splicing = modulators of lamin A splicing; HeLa LMNA splicing GFP/RFP minigene ratio, 48 h; Potency, µM (series often up to 46.1 µM), for inactives: top-dose ratio change, negative = inhibition, actives largely listed as inhibitors; 0.01% of 200,000 active; AID 1487; active = well fitted inhibition curve with a large enough effect in the signal ratio, with a control signal flat, not every such curve was filed as active; inconclusive = small, poorly fitted or top-dose-only effect, or effect the other way, or a change in a side signal; the % refers to the signal ratio; also: potency is read from the fitted curve at half-maximal effect; % is scaled to controls: 0 for no effect and ±100 for the full control effect
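S3 HeLa cells stably expressing lamin A-EGFP splicing minigene plus DsRed2, 600 cells/well, 48 h compound exposure at 37C. Laser-scanning cytometry; analysed as GFP (500-530 nm)/RFP (575-640 nm) total intensity ratio; 0.5% DMSO vehicle.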
Starred values were filed as active, the others as inactive; [ ] = dose if it differs, or a comment. Unless noted, calls follow the shape of the dose curve; as a rule, active = well fitted curve in the direction sought with a large enough effect; inconclusive = small, poorly fitted or top-dose-only effect, or another doubt; inactive = no such curve, though single readings can be large; an effect the other way counts as inactive or inconclusive.

How did CCN(CC(=O)Nc1ccc(NC(C)=O)cc1)CC(=O)Nc1ccc(Cl)c(Cl)c1 do in these assays?
Sfp PPTase inh: 56µM*; miR-21 FLuc: -9%; G9a inh: 32µM*

Results for CN(CC(=O)Nc1ccc(S(N)(=O)=O)cc1)C1CCCCC1 ?
Sfp PPTase inh: -7%; miR-21 FLuc: -1%; G9a inh: -4%

Results for CCOC(=O)c1cc2c(=O)n3ccccc3nc2n(CCCOC)c1=NC(=O)c1c(-c2ccccc2Cl)noc1C ?
miR-21 FLuc: -4%; G9a inh: -5%[59 µM]

How did O=C(CCl)N(c1ccc(Cl)cc1)c1c[nH]c2ccccc12 do in these assays?
Sfp PPTase inh: -7%; JMJD2E inh: 0%; miR-21 FLuc: inconclusive; G9a inh: inconclusive; ALDH1A1 inh: 7.1µM*; Lamin A splicing: inconclusive

What do the screens show for `O=[N+]([O-])c1cc(-c2nc(-c3ccccc3)no2)ccc1N1CCN(c2ccccc2)CC1`?
miR-21 FLuc: -5%; G9a inh: inconclusive

Results for Cc1cccnc1-n1c(CCN2C(=O)c3ccccc3C2=O)nc2ccccc2c1=O ?
Sfp PPTase inh: 11%; JMJD2E inh: 7%; miR-21 FLuc: -12%; G9a inh: inconclusive; ALDH1A1 inh: 18µM*; Lamin A splicing: 13%

What do the screens show for `O=C1c2ccccc2C(=O)N1CCc1nc2ccccc2c(=O)n1-c1ccccn1`?
Sfp PPTase inh: 15%; JMJD2E inh: -2%; miR-21 FLuc: -9%; G9a inh: 15%[12.7 µM]; ALDH1A1 inh: -2%; Lamin A splicing: -1%

Results for CCOC(=O)C1CCN(CC(=O)N2C(C)CCCC2C)CC1 (stereo not drawn) ?
Sfp PPTase inh: inconclusive; JMJD2E inh: inconclusive; miR-21 FLuc: 1%; G9a inh: 8.9µM*; ALDH1A1 inh: 11µM*; Lamin A splicing: -7%

Results for COc1cc2c(cc1OC)C1(Nc3c-2c(-c2ccccc2)nn3-c2ccccc2)C(=O)Nc2ccccc21 (stereo not drawn) ?
Sfp PPTase inh: 6%; JMJD2E inh: 2%; miR-21 FLuc: -2%; G9a inh: 79µM*; ALDH1A1 inh: 5%; Lamin A splicing: 17%

Results for COc1cc2c(cc1OC)C1(Nc3c-2c(C)nn3-c2ccccc2)C(=O)Nc2ccccc21 (stereo not drawn) ?
Sfp PPTase inh: -16%; JMJD2E inh: inconclusive; miR-21 FLuc: -5%; G9a inh: 71µM*; ALDH1A1 inh: inconclusive; Lamin A splicing: 20%

What do the screens show for `COc1ccc(N2C(=O)CSC23C(=O)Nc2ccccc23)cc1OC` (stereo not drawn)?
Sfp PPTase inh: -1%; JMJD2E inh: inconclusive; miR-21 FLuc: 6%; G9a inh: -4%; ALDH1A1 inh: 0%; Lamin A splicing: -19%

Results for COc1cc2c(-c3ccccc3O)nc3c(c(C)nn3-c3ccccc3)c2cc1OC ?
Sfp PPTase inh: 16%; JMJD2E inh: inconclusive; miR-21 FLuc: -7%; G9a inh: 5%[59 µM]; ALDH1A1 inh: 4%; Lamin A splicing: 1%

Overlap with the part before: two entries; new compounds follow.
What do the screens show for `COc1ccc(N2C(=O)CSC23C(=O)Nc2ccccc23)cc1OC` (stereo not drawn)?
Sfp PPTase inh: -1%; JMJD2E inh: inconclusive; miR-21 FLuc: 6%; G9a inh: -4%; ALDH1A1 inh: 0%; Lamin A splicing: -19%

Results for COc1cc2c(-c3ccccc3O)nc3c(c(C)nn3-c3ccccc3)c2cc1OC ?
Sfp PPTase inh: 16%; JMJD2E inh: inconclusive; miR-21 FLuc: -7%; G9a inh: 5%[59 µM]; ALDH1A1 inh: 4%; Lamin A splicing: 1%

How did COc1cc(NC(=O)CCc2c(C)nc3c(-c4ccc(F)cc4)c(C)nn3c2C)cc(OC)c1OC do in these assays?
miR-21 FLuc: -13%; G9a inh: 14%[59 µM]

How did CCCN(CCC)CCCNC(=S)Nc1ccc2nc(N3CCCC3)cc(C)c2c1 do in these assays?
Sfp PPTase inh: 19%; JMJD2E inh: inconclusive; miR-21 FLuc: -2%; G9a inh: 40µM*; ALDH1A1 inh: inconclusive

Results for CCN(CC)CCNC(=S)Nc1ccc2nc(N3CCN(C)CC3)cc(C)c2c1 ?
Sfp PPTase inh: inconclusive; miR-21 FLuc: -21%; G9a inh: 45µM*

What do the screens show for `CCN(CC)CCNC(=S)Nc1ccc(F)cc1`?
Sfp PPTase inh: 28µM*; JMJD2E inh: -2%; miR-21 FLuc: -3%; G9a inh: -39%; ALDH1A1 inh: 7%
